The results in this text go back to ChEMBL document CHEMBL4396874, “Consideration of Binding Kinetics in the Design of Stapled Peptide Mimics of the Disordered Proteins Eukaryotic Translation Initiation Factor 4E-Binding Protein 1 and Eukaryotic Translation Initiation Factor 4G” (J Med Chem, 2019).

Amino acid sequences for entries named in this document (tags omitted).
UniProt P06730, whole entry: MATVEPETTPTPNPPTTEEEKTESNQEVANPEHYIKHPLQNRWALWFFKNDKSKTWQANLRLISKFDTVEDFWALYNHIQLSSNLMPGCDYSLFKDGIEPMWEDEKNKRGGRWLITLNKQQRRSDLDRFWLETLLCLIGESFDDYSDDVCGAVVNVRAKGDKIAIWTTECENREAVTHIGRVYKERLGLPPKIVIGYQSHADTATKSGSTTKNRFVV

In the assay the target is Eukaryotic translation initiation factor 4E (Homo sapiens, UniProt P06730). Nature of the assay: Binding affinity to N-terminal 10His-tagged m7GDP-bound recombinant human eIF4E expressed in Escherichia coli BL21 (DE3) cells assessed as binding constant at 25 degreeC by surface plasmon resonance analysis. Summed up: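 m7GDP-bound His10-eIF4E captured to ~600 RU on a Ni-activated HisCap chip. EDTA regeneration between cycles. Kd from global 1:1 fit; triplicate experiments.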
Background: Surface plasmon resonance follows binding to a sensor surface in real time, without labels.

Turning to `CC(=O)N[C@@H](CCCCN)C(=O)N[C@@H](CCCCN)C(=O)N[C@@H](CCCNC(=N)N)C(=O)N[C@@H](Cc1ccc(O)cc1)C(=O)N[C@@H](CO)C(=O)N[C@@H](CCCNC(=N)N)C(=O)N[C@@]1(C)CCC/C=C\CCC[C@@](C)(C(=O)N[C@@H](CC(C)C)C(N)=O)NC(=O)[C@H](CC(C)C)NC(=O)[C@H](CC(C)C)NC(=O)[C@H](CCC(N)=O)NC1=O`, the K was found to be 6.3 nM.
